For 102 molecules, GFP response vs DMSO results are on record in PubChem BioAssay AID2066 (NMMLSC, 2009).

Molecules are shown by their SMILES. The entries are a selection whose mix differs from that of the whole data set. Active and inactive are the calls of the source.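 The calls were made as follows: active = GFP response relative to DMSO above a set limit, near screen average plus 3 SD (cut at about 150% in these data); inconclusive = fewer than 70 cells counted for the yeast strain; inactive = the rest.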

The nature of this assay: yeast AGP1-GFP level changes, GLN3 branch – cell-based, multiplex flow cytometry, S. cerevisiae, MLPCN library, primary screen (AID 2066).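 Also: median GFP channel fluorescence of the gated AGP1 strain per well.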 Particulars: 3 h, at 10 µM, hits give high values, GFP as percent of DMSO wells. A general note: A flow cytometer gives signals particle by particle.
With `CCOP(=O)(NC(=NC(C)c1ccccc1)NC(C)c1ccccc1)OCC` (configuration not stated), the GFP response vs DMSO is inactive: 87.7%.
Under `O=P1(Nc2ccccn2)COc2ccccc2OC1` stands inactive: 102%.
With `CCC1=CC2Cc3nc4ccc(Cl)cc4c(N)c3C(C1)C2` (configuration not stated), the GFP response vs DMSO is inactive: 96%.
With `CN(CCCl)Cc1cc(Cl)c(NC2=NCCN2)c(Cl)c1`, the GFP response vs DMSO was inactive: 107%.
Under `CCOP(=O)(Nc1ccc(C)cn1)OCC` stands inactive: 106%.
Regarding `CC(C)(C)C(=O)NC(Sc1ncccn1)C(Cl)(Cl)Cl` (configuration not stated), the GFP response vs DMSO is inactive: 100%.
Consider `Clc1n[nH]nc1-c1nn[nH][15n]1`, for which the GFP response vs DMSO was inactive: 102%.
Consider `COc1ccccc1CNC(=O)COC(=O)C(O)(c1ccccc1)c1ccccc1`, for which the GFP response vs DMSO was inactive: 97.3%.
Under `CC(C)/C=N\N=C(\N)N[N+](=O)[O-]` stands inactive: 101%.
For `CN(C(=O)Cc1ccc(Cl)c(Cl)c1)[C@@H]1CCCC[C@H]1N1CCCC1`, the GFP response vs DMSO was inactive: 85.5%.
In the case of `CC1(CBr)Cn2c(nc3ccccc3c2=O)S1` (configuration not stated), the GFP response vs DMSO is inactive: 100%.
Regarding `O=[As](O)(c1ccccc1Br)c1ccccc1Br`, the GFP response vs DMSO is inactive: 97.2%.
Take `CC1CCC(C(C)C)C(OP(=O)(Nc2ccccn2)c2ccccc2)C1` (configuration not stated): the GFP response vs DMSO was inactive: 100%.
Turning to `Cc1ccc(C(=O)OC2CN3CCC2CC3)cc1` (configuration not stated), the GFP response vs DMSO is inactive: 96.5%.
`Cc1nn(-c2ccccc2)c2c1P(=O)(N1CCOCC1)N(C)C(c1ccccc1)=N2` (configuration not stated): the GFP response vs DMSO was inactive: 97.1%.
Consider `CN(C)C1(CNC(=O)c2ccc(S(C)(=O)=O)cc2)CCCCC1`, for which the GFP response vs DMSO is inactive: 104%.
Consider `O=C(/C=C/c1ccccc1)OC1CN2CCC1CC2` (configuration not stated), for which the GFP response vs DMSO was inactive: 102%.
The result for `O=P1(Nc2ncccn2)COc2ccccc2OC1` reads inactive: 107%; that for `Nc1cccc([As](=O)(O)c2ccccc2)c1`, inactive: 86.3%.
As for `O=P1(Nc2ccc(Br)cn2)COc2ccccc2OC1`, the GFP response vs DMSO was inactive: 100%.
On to `NS(=O)(=O)c1cccc(NC(=O)COC(=O)C(O)(c2ccccc2)c2ccccc2)c1`, for which the GFP response vs DMSO is inactive: 99.8%.
On to `O=[As](O)(c1cccs1)c1cccs1`, for which the GFP response vs DMSO was inactive: 92.5%.
Regarding `Cc1ccc(OCC(=O)OC2CN3CCC2CC3)cc1` (configuration not stated), the GFP response vs DMSO is inactive: 99.6%.
For the molecule `O=P(Nc1nccs1)(c1ccccc1)c1nc2ccccc2s1` (configuration not stated), the GFP response vs DMSO was inactive: 95.2%.
For `O=P(Nc1nccs1)(Oc1ccccc1)Oc1ccccc1`, the GFP response vs DMSO was inactive: 94.5%.
The result for `CCOP1(=S)c2c(C)nn(CCC#N)c2N=C(c2ccccc2F)N1C` (configuration not stated) reads inactive: 108%.
Consider `CS(=O)(=O)c1cc([N+](=O)[O-])c2no[n+]([O-])c2c1`, for which the GFP response vs DMSO was inactive: 101%.
As to `Nc1ccccc1[As](=O)(O)c1ccccc1`, the GFP response vs DMSO is inactive: 99.9%.
For `O=C(O)COc1ccc([As](=O)(O)O)cc1[N+](=O)[O-]`, the GFP response vs DMSO is inactive: 118%.
Consider `NC(=O)Nc1ccc([As](=O)(O)O)cc1`, for which the GFP response vs DMSO was inactive: 90.2%.
As to `CCOP1(=S)c2c(C)nn(CCC#N)c2N=C(c2ccc(F)cc2)N1C` (configuration not stated), the GFP response vs DMSO is inactive: 99.9%.
The result for `CN(C(=O)Cc1ccccc1)[C@@H]1CC[C@]2(CCCO2)C[C@H]1N1CCCC1` reads inactive: 88.2%; that for `N#CCCN(C(=O)COC(=O)C(O)(c1ccccc1)c1ccccc1)c1ccc(F)cc1`, inactive: 105%.
As for `CN(C(=O)Cc1ccc(Cl)c(Cl)c1)[C@H]1CC[C@@]2(CCCO2)C[C@@H]1N1CCCC1`, the GFP response vs DMSO is inactive: 92.7%.
On to `CN(C)C(=O)c1cc([N+](=O)[O-])cc2c1-c1c(cc([N+](=O)[O-])cc1[N+](=O)[O-])C2=O`, for which the GFP response vs DMSO is inactive: 81.7%.
As for `O=[N+]([O-])c1ccc2c(c1)nnn2O`, the GFP response vs DMSO was inactive: 105%.
Take `O=C(OC1CN2CCC1CC2)c1ccc(Cl)cc1` (configuration not stated): the GFP response vs DMSO is inactive: 96.9%.
In the case of `CS(=O)(=O)c1ccc(Cl)c(NC(=O)COC(=O)C(O)(c2ccccc2)c2ccccc2)c1`, the GFP response vs DMSO was inactive: 99.3%.
For the molecule `COc1cc(C(=O)NCC2(N3CCOCC3)CCCCC2)cc(Cl)c1OC(C)C`, the GFP response vs DMSO was inactive: 97.8%.
Consider `O=[As](O)(O)c1cccnc1`, for which the GFP response vs DMSO is inactive: 100%.
Turning to `O=[As](O)(c1cccc(O)c1)c1cccc(O)c1`, the GFP response vs DMSO was inactive: 101%.
The result for `Cc1cccc(OCC(=O)OC2CN3CCC2CC3)c1` (configuration not stated) reads inactive: 110%; that for `Nc1cccc2c([As](=O)(O)O)cccc12`, inactive: 106%.
Under `Cc1ccc(NCCc2c([N+](=O)[O-])cc([N+](=O)[O-])cc2[N+](=O)[O-])cc1` stands inactive: 99.3%.
Consider `CCCOP(=S)(Nc1nc(N)cc(=O)[nH]1)OCCC`, for which the GFP response vs DMSO was inactive: 103%.
Regarding `CCOP(=O)(Nc1cccc2ccccc12)OCC`, the GFP response vs DMSO was inactive: 106%.
`COc1cc(C2NCCC3(OCCO3)C2(C)C)cc(OC)c1OC` (configuration not stated): the GFP response vs DMSO was inactive: 100%.
Consider `Cc1c2c(nc3ccccc13)SC(C(Cl)Cl)C2` (configuration not stated), for which the GFP response vs DMSO is inactive: 103%.
Regarding `Cc1cc(=O)[nH]c(N[N+](=O)[O-])n1`, the GFP response vs DMSO was inactive: 96.6%.
Consider `O=C(OC1CN2CCC1CC2)C12CC3CC(CC(C3)C1)C2` (configuration not stated), for which the GFP response vs DMSO was inactive: 111%.
For the molecule `COc1cc(I)ccc1[As](=O)(O)O`, the GFP response vs DMSO is inactive: 111%.
Turning to `COc1ccc2nc(NP(=O)(c3ccccc3)c3ccccc3)sc2c1`, the GFP response vs DMSO is inactive: 104%.
Take `COc1ccc(N/C(=N/P(=O)(N2CCOCC2)N2CCOCC2)N2CCOCC2)cc1`: the GFP response vs DMSO is inactive: 105%.
`COc1cc(C(=O)NCC2(N3CCOCC3)CCCCC2)ccc1OCC(C)C`: the GFP response vs DMSO was inactive: 99.7%.
The result for `C[As](=O)(O)c1cccc(C(=O)O)c1` reads inactive: 102%; that for `O=[As](O)(c1ccc(O)cc1)c1ccccc1O`, inactive: 104%.
As for `Cc1ccc(OP(=O)(Nc2ccc([N+](=O)[O-])cn2)Oc2ccc(C)cc2)cc1`, the GFP response vs DMSO was inactive: 99.9%.
As for `Cc1ccc2nc3c(c(C)c2c1)CC(C(Cl)Cl)S3` (configuration not stated), the GFP response vs DMSO was inactive: 97.7%.
As to `ClCCSc1nnc(-c2cccnc2)o1`, the GFP response vs DMSO was inactive: 93.2%.
Turning to `CC(C)c1ccc(OP(=O)(Nc2ccccn2)Oc2ccccc2F)cc1` (configuration not stated), the GFP response vs DMSO was inactive: 100%.
Consider `O=[N+]([O-])c1cc([N+](=O)[O-])c(-c2ccn[nH]2)s1`, for which the GFP response vs DMSO was inactive: 95.2%.
As to `CCN(CC)C(=S)SC(NC=O)C(Cl)(Cl)Cl` (configuration not stated), the GFP response vs DMSO was inactive: 103%.
In the case of `CC(C)NC(=O)NP(=O)(Oc1ccccc1)Oc1ccccc1`, the GFP response vs DMSO was inactive: 101%.
With `CCOC(=O)Nc1ccc([As](=O)(O)O)c(O)c1`, the GFP response vs DMSO was inactive: 97.9%.
Take `Cc1cc(SC(NC(=O)c2ccccc2)C(Cl)(Cl)Cl)nc(C(C)C)n1` (configuration not stated): the GFP response vs DMSO was inactive: 91%.
Turning to `CCOC(=O)Nc1cccc([As](=O)(O)O)c1`, the GFP response vs DMSO is inactive: 101%.
Take `O=P(Nc1ccccn1)(c1cccc2ccccc12)c1cccc2ccccc12`: the GFP response vs DMSO is inactive: 84.2%.
The result for `Cc1cc(SC(NC=O)C(Cl)(Cl)Cl)ncn1` (configuration not stated) reads inactive: 101%; that for `O=[N+]([O-])c1ccc(Nc2ccc(Oc3ccc([N+](=O)[O-])cc3[N+](=O)[O-])cc2)c([N+](=O)[O-])c1`, inactive: 98.9%; that for `COP1(=S)c2c(C)nn(CCC#N)c2N=C(c2ccc(F)cc2)N1C` (configuration not stated), inactive: 111%.
Take `O=C(Nc1ccncc1[N+](=O)[O-])c1ccc([N+](=O)[O-])cc1[N+](=O)[O-]`: the GFP response vs DMSO was inactive: 105%.
Under `O=C(COc1ccccc1)OC1CN2CCC1CC2` (configuration not stated) stands inactive: 94.4%.
On to `O=C(OC1CN2CCC1CC2)c1cccc([N+](=O)[O-])c1` (configuration not stated), for which the GFP response vs DMSO was inactive: 98.8%.
As for `CCOC(=O)c1ccc(NC(=O)C(C)(CCl)SC)cc1` (configuration not stated), the GFP response vs DMSO was inactive: 101%.
For the molecule `CCC(C)N(CC(C)C)C(=S)SC(NC(C)=O)C(Cl)(Cl)Cl` (configuration not stated), the GFP response vs DMSO is inactive: 95.8%.
As to `COc1ccc(C2=NCC(CBr)S2)cc1` (configuration not stated), the GFP response vs DMSO is inactive: 107%.
As for `CCc1nc2c(n1)c1c(non1O)c1c2no[n+]1[O-]`, the GFP response vs DMSO was inactive: 109%.
For `O=[N+]([O-])c1cc([N+](=O)[O-])c(CCNc2ccccc2)c([N+](=O)[O-])c1`, the GFP response vs DMSO was inactive: 95.7%.
For the molecule `Cc1ccc(NP(=O)(Oc2ccccc2)Oc2ccccc2)nc1`, the GFP response vs DMSO was inactive: 89.5%.
Under `O=[N+]([O-])c1cccc2n[nH]nc12` stands inactive: 102%; under `CC(=O)N1C2C3N(C(C)=O)C1C1N(C(C)=O)C(C(N1C(C)=O)N3C(C)=O)N2C(C)=O`, inactive: 103%; under `CCN(/C(=N/P(=O)(N1CCOCC1)N1CCOCC1)N1CCOCC1)c1ccc(OC)cc1`, inactive: 94.2%.
In the case of `C[N+]1=C2C=CC=CC=C2SC12C([N+](=O)[O-])=CC([N+](=O)[O-])=C[C-]2[N+](=O)[O-]` (configuration not stated), the GFP response vs DMSO is inactive: 99.5%.
Under `Nc1ccc([As](=O)(O)c2ccc(N)cc2)cc1` stands inactive: 110%; under `CC1CCN(C(=O)Oc2c(Cl)cc(Cl)c3cccnc23)CC1`, inactive: 102%; under `CN(C)C(=O)OCCc1n(C)cc[n+]1C`, inactive: 101%.
The result for `CC(C)=N/N=C(\N)N[N+](=O)[O-]` reads inactive: 105%; that for `O=C(Nc1cc([As](=O)(O)O)ccc1O)c1ccccc1`, inactive: 78.5%; that for `O=[N+]([O-])c1ncn(CCn2ncnc2[N+](=O)[O-])n1`, inactive: 97.1%.
Consider `CC(C)(C)C(=O)NC(Sc1ccncn1)C(Cl)(Cl)Cl` (configuration not stated), for which the GFP response vs DMSO is inactive: 93.2%.
Under `O=C(O)CNc1ccc([As](=O)(O)O)cc1` stands inactive: 96.1%; under `O=[N+]([O-])c1cccc(NC2=NCC(CBr)S2)c1` (configuration not stated), inactive: 110%.
Regarding `O=P(Nc1nc2ccc(Cl)cc2s1)(c1ccccc1)c1ccccc1`, the GFP response vs DMSO is inactive: 99.8%.
Under `O=C(O)c1ccccc1[As](=O)(O)O` stands inactive: 94%; under `CC(=O)Nc1ccc([As](=O)(O)O)cc1`, inactive: 96.4%.
For `CN(C(=O)Cc1ccc(Cl)c(Cl)c1)[C@H]1CCCC[C@@H]1N1CCCC1`, the GFP response vs DMSO is inactive: 96.8%.
Take `CCOP(=O)(Nc1ccccc1)OCC`: the GFP response vs DMSO was inactive: 97.9%.
For the molecule `Cc1cc(SC(NC(=O)c2ccc(F)cc2)C(Cl)(Cl)Cl)ncn1` (configuration not stated), the GFP response vs DMSO is inactive: 98.8%.
For the molecule `O=[N+]([O-])c1cc([N+](=O)[O-])c(CCN2CCOCC2)c([N+](=O)[O-])c1`, the GFP response vs DMSO was inactive: 100%.
As for `Nc1cccc2ccc([As](=O)(O)O)cc12`, the GFP response vs DMSO was inactive: 95.9%.
Under `CCN(N=Nc1nonc1N)c1nonc1N` stands inactive: 99.4%; under `Cc1ccc(N/C(=N/P(=O)(N2CCOCC2)N2CCOCC2)N2CCOCC2)cc1`, inactive: 96.8%.
